Assay results taken from patent US12336995B2, “Combination therapies” (Mirati Therapeutics, Inc., priority 2018, dated 2025).

Assays:
CR6258 Tumor = test: In vivo PDX model, Compound 478 and Cetuximab (Table 5a); design: species or system nude/nude mice; details: Cetuximab 0.25 mg/kg i.p. every third day, single or combined
[1] = test system: CR2528 cells (PDX models); test: In vivo PDX model, Compound 478 and Cetuximab (Table 5b); design: species or system nude/nude mice; details: Cetuximab 0.25 mg/kg i.p. every third day, single or combined
Experimental: The first group was administered vehicle only.

[2] = Day 11 post implant (treatment start), Compound 478 100 mg/kg p.o. daily
[3] = Day 14 post implant, from Day 11: Compound 478 100 mg/kg p.o. daily

Cetuximab: anti-EGFR monoclonal antibody approved for human clinical use (ImClone)
Average Tumor Volumes (CR6258 Tumor; [2]): 187.77 mm^3
Average Tumor Volumes (CR6258 Tumor; [3]): 258.50 mm^3
Average Tumor Volumes (CR6258 Tumor; Day 18 post implant, from Day 11: Compound 478 100 mg/kg p.o. daily): 321.93 mm^3
Average Tumor Volumes (CR6258 Tumor; Day 21 post implant, from Day 11: Compound 478 100 mg/kg p.o. daily): 390.52 mm^3
Average Tumor Volumes (CR6258 Tumor; Day 25 post implant, from Day 11: Compound 478 100 mg/kg p.o. daily): 503.75 mm^3
Average Tumor Volumes (CR6258 Tumor; Day 28 post implant, from Day 11: Compound 478 100 mg/kg p.o. daily): 571.30 mm^3
Average Tumor Volumes (CR6258 Tumor; Day 32 post implant, from Day 11: Compound 478 100 mg/kg p.o. daily): 652.14 mm^3
Average Tumor Volumes (CR6258 Tumor; Day 35 post implant, from Day 11: Compound 478 100 mg/kg p.o. daily): 678.49 mm^3
Average Tumor Volumes (CR6258 Tumor; Day 39 post implant, from Day 11: Compound 478 100 mg/kg p.o. daily): 768.49 mm^3
Average Tumor Volumes (CR6258 Tumor; Day 42 post implant, from Day 11: Compound 478 100 mg/kg p.o. daily): 890.83 mm^3
Average Tumor Volumes (CR6258 Tumor; Day 46 post implant, from Day 11: Compound 478 100 mg/kg p.o. daily): 975.10 mm^3
Average Tumor Volumes (CR6258 Tumor; Day 49 post implant, from Day 11: Compound 478 100 mg/kg p.o. daily): 1233.04 mm^3
Average Tumor Volumes [1, 2]: 266.03 mm^3
Average Tumor Volumes [1, 3]: 450.64 mm^3
Average Tumor Volumes ([1]; Day 17 post implant, from Day 11: Compound 478 100 mg/kg p.o. daily): 616.52 mm^3
Average Tumor Volumes ([1]; Day 20 post implant, from Day 11: Compound 478 100 mg/kg p.o. daily): 1208.84 mm^3
Average Tumor Volumes ([1]; Day 24 post implant, from Day 11: Compound 478 100 mg/kg p.o. daily): 1924.82 mm^3
Average Tumor Volumes ([1]; Day 27 post implant, from Day 11: Compound 478 100 mg/kg p.o. daily): 2424.63 mm^3
Average Tumor Volumes ([1]; Day 31 post implant, from Day 11: Compound 478 100 mg/kg p.o. daily): 2741.36 mm^3
